Tested on: CTLL-2 cells
Test: Measurement of apoptosis (Annexin V-FITC, YOPRO-1) in CTLL-2 cells
Assay type: cell-based, mouse
Conditions: in parallel to micronucleus test

Substance: anisomycin C
- induction of apoptosis (result in words): induce apoptosis
